# Results published in patent US20220168325A1, “METHODS TO PROMOTE CEREBRAL BLOOD FLOW IN THE BRAIN” (THE UNIVERSITY OF VERMONT, priority 2019, published 2022).
# Biological target: T1, Kir2.1 channel (Mus musculus, UniProt P35561)
# T1 sequence (P35561 1-428): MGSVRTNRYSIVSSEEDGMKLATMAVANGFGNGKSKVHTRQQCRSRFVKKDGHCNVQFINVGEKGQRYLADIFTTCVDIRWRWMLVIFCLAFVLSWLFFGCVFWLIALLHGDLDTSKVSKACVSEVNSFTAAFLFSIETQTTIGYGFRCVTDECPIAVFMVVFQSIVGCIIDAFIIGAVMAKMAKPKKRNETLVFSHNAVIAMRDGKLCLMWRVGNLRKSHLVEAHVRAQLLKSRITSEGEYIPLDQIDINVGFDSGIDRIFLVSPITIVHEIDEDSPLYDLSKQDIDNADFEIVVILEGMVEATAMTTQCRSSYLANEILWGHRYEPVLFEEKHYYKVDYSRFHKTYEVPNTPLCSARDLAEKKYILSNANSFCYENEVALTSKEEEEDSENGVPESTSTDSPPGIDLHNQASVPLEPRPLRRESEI
# Test: Patch-clamp recording of Kir2.1 currents in freshly isolated brain capillary endothelial cells (cECs)
smiles,measurement,value
"C[N+](C)(C)CC#CCN1CCCC1=O.[I-] [oxotremorine M, N,N,N-trimethyl-4-(2-oxo-1-pyrolidinyl)-2-butyn-1-ammonium iodide]",Decrease of Kir2.1 currents after 15-minute incubation,40±5%
